Source: publication doi:10.1101/2023.11.09.566408v1 (bioRxiv, 2023)
Where two headings read alike, the source gives them in different places.

Type: in vivo, mice
Settings: male, Swiss, mouse, plasma

CC[C@H](C)[C@H](NC(=O)[C@@H]1CCCN1C(=O)CNC(=O)[C@H](Cc1ccccc1)NC(=O)[C@H](CC(N)=O)NC(=O)[C@H](CC(N)=O)NC(=O)[C@H](CO)NC(=O)[C@H](CO)NC(=O)[C@H](Cc1c[nH]cn1)NC(=O)[C@@H](NC(=O)[C@H](CC(C)C)NC(=O)[C@H](Cc1ccccc1)NC(=O)[C@H](CC(N)=O)NC(=O)[C@H](C)NC(=O)[C@H](CC(C)C)NC(=O)[C@H](CCCNC(=N)N)NC(=O)[C@H](CCC(N)=O)NC(=O)[C@@H](NC(=O)[C@H](C)NC(=O)[C@@H]1CSSC[C@H](NC(=O)[C@@H](N)CCCCN)C(=O)N[C@@H](CC(N)=O)C(=O)N[C@@H]([C@@H](C)O)C(=O)N[C@@H](C)C(=O)N[C@@H]([C@@H](C)O)C(=O)N1)[C@@H](C)O)C(C)C)C(=O)N[C@@H](CC(C)C)C(=O)N1CCC[C@H]1C(=O)N1CCC[C@H]1C(=O)N[C@H](C(=O)N[C@@H](CC(N)=O)C(=O)N[C@H](C(=O)NCC(=O)N[C@@H](CO)C(=O)N[C@@H](CC(N)=O)C(=O)N[C@H](C(=O)N[C@@H](Cc1ccc(O)cc1)C(N)=O)[C@@H](C)O)C(C)C)[C@@H](C)O [pramlintide]
Cmax (iv, 5 μg/animal): ~3.7 nM | half-life (iv, 5 μg/animal): 6.8 min | Cmax (po, 100 ug): 0.13 nM
